Where a chain is given by its changes, count along the chain named.
B1: F4-1-H2L1: humanized antibody of F4-1: huF4-1VH2 + huF4-1VL1 (antibody)
heavy: EVQLVQSGAEVKKPGASVKVSCKASGYTFTDNYINWVRQAPGQRLEYIGWIYPGSGNNKFNEKFKGRVTLTVDTSARTAYMELSSLRSEDTAVYYCARDYPFPSYHYGMDYWGQGTTVTVSSASTKGPSVFPLAPSSKSTSGGTAALGCLVKDYFPEPVTVSWNSGALTSGVHTFPAVLQSSGLYSLSSVVTVPSSSLGTQTYICNVNHKPSNTKVDKKV[human IgG1 Fc not spelt out]
light: DIQMTQSPSSLSASVGDRVTITCSASSSVSYIHWFQQKPGKAPKLWIYSTSNLASGVPSRFSGSGSGTDFTLTISSLQPEDFATYYCQQRSSYPPTFGGGTKVEIKRTVAAPSVFIFPPSDEQLKSGTASVVCLLNNFYPREAKVQWKVDNALQSGNSQESVTEQDSKDSTYSLSSTLTLSKADYEKHKVYACEVTHQGLSSPVTKSFNRGEC
B2: F4-1-H3L1: humanized antibody of F4-1: huF4-1VH3 + huF4-1VL1 (antibody)
heavy: B1 heavy with V2I, K12V, A40R, R44G
light: B1 light
B3: F4-1-H3L2: humanized antibody of F4-1: huF4-1VH3 + huF4-1VL2 (antibody)
heavy: B1 heavy with V2I, K12V, A40R, R44G
light: B1 light with M4L, I74V
B4: F4-1-H1L3: humanized antibody of F4-1: huF4-1VH1 + huF4-1VL3 (antibody)
heavy: B1 heavy with I48M, L70I, R77S
light: B1 light with M4L, K41T, A42S, I74V
B5: F4-1-H2L3: humanized antibody of F4-1: huF4-1VH2 + huF4-1VL3 (antibody)
heavy: B1 heavy
light: B1 light with M4L, K41T, A42S, I74V
B6: F4-1-H3L3: humanized antibody of F4-1: huF4-1VH3 + huF4-1VL3 (antibody)
heavy: B1 heavy with V2I, K12V, A40R, R44G
light: B1 light with M4L, K41T, A42S, I74V
B7: F4-1-H2L4: humanized antibody of F4-1: huF4-1VH2 + huF4-1VL4 (antibody)
heavy: B1 heavy
light: B1 light with M4L, K41T, A42S, S59P, D69S, I74V
B8: F4-1-H3L4: humanized antibody of F4-1: huF4-1VH3 + huF4-1VL4 (antibody)
heavy: B1 heavy with V2I, K12V, A40R, R44G
light: B1 light with M4L, K41T, A42S, S59P, D69S, I74V
B9: F4-1-H1L1: humanized antibody of F4-1: huF4-1VH1 + huF4-1VL1 (antibody)
heavy: B1 heavy with I48M, L70I, R77S
light: B1 light
B10: F4-18-H3L1: humanized antibody of F4-18: huF4-18VH3 + huF4-18VL1 (antibody)
heavy: EVQLVQSGAEVVKPGASVKMSCKTSGYTFTSYGINWVRQRPGQGLEWIGYIYLGSDYTEYNEKFKGRVTLTSDTSASTAYMELSSLRSEDTAVYYCARSAGSLFAYWGQGTLVTVSSASTKGPSVFPLAPSSKSTSGGTAALGCLVKDYFPEPVTVSWNSGALTSGVHTFPAVLQSSGLYSLSSVVTVPSSSLGTQTYICNVNHKPSNTKVDKKV[human IgG1 Fc not spelt out]
light: DIQMTQSPSSLSASVGDRVTITCRASQDIGITLNWYQQKPGKAPKRLIYATSSLDSGVPSRFSGSRSGTDYTLTISSLQPEDFATYYCLQYASSPYTFGGGTKVEIKRTVAAPSVFIFPPSDEQLKSGTASVVCLLNNFYPREAKVQWKVDNALQSGNSQESVTEQDSKDSTYSLSSTLTLSKADYEKHKVYACEVTHQGLSSPVTKSFNRGEC
B11: F4-18-H4L1: humanized antibody of F4-18: huF4-18VH4 + huF4-18VL1 (antibody)
heavy: B10 heavy with A100G
light: B10 light
B12: F4-18-H5L1: humanized antibody of F4-18: huF4-18VH5 + huF4-18VL1 (antibody)
heavy: B10 heavy with A105G
light: B10 light
B13: F4-18-H1L2: humanized antibody of F4-18: huF4-18VH1 + huF4-18VL2 (antibody)
heavy: B10 heavy with V12K, M20V, T24A, R40A, G44R, I48M
light: B10 light with Y36L
B14: F4-18-H3L2: humanized antibody of F4-18: huF4-18VH3 + huF4-18VL2 (antibody)
heavy: B10 heavy
light: B10 light with Y36L
B15: F4-18-H4L2: humanized antibody of F4-18: huF4-18VH4 + huF4-18VL2 (antibody)
heavy: B10 heavy with A100G
light: B10 light with Y36L
B16: F4-18-H5L2: humanized antibody of F4-18: huF4-18VH5 + huF4-18VL2 (antibody)
heavy: B10 heavy with A105G
light: B10 light with Y36L
B17: F4-18-H1L3: humanized antibody of F4-18: huF4-18VH1 + huF4-18VL3 (antibody)
heavy: B10 heavy with V12K, M20V, T24A, R40A, G44R, I48M
light: B10 light with M4L, Y36L, P44I, T69S
B18: F4-18-H3L3: humanized antibody of F4-18: huF4-18VH3 + huF4-18VL3 (antibody)
heavy: B10 heavy
light: B10 light with M4L, Y36L, P44I, T69S
B19: F4-18-H3L4: humanized antibody of F4-18: huF4-18VH3 + huF4-18VL4 (antibody)
heavy: B10 heavy
light: B10 light with M4L, Y36L, K39E, K42G, P44I, S60K, T69S
B20: F4-18-H5L4: humanized antibody of F4-18: huF4-18VH5 + huF4-18VL4 (antibody)
heavy: B10 heavy with A105G
light: B10 light with M4L, Y36L, K39E, K42G, P44I, S60K, T69S
B21: F4-18-H2L2: humanized antibody of F4-18: huF4-18VH2 + huF4-18VL2 (antibody)
heavy: B10 heavy with V12K, M20V, T24A
light: B10 light with Y36L
B22: F4-18-H2L3: humanized antibody of F4-18: huF4-18VH2 + huF4-18VL3 (antibody)
heavy: B10 heavy with V12K, M20V, T24A
light: B10 light with M4L, Y36L, P44I, T69S
B23: F4-18-H4L3: humanized antibody of F4-18: huF4-18VH4 + huF4-18VL3 (antibody)
heavy: B10 heavy with A100G
light: B10 light with M4L, Y36L, P44I, T69S

Protein sequences, listed by entry. Tags and fused reporters are not part of them. Chains listed by the source or under a name are the forms on record and can include a tag or linker.
UniProt P15941, with tags, fused parts or gaps: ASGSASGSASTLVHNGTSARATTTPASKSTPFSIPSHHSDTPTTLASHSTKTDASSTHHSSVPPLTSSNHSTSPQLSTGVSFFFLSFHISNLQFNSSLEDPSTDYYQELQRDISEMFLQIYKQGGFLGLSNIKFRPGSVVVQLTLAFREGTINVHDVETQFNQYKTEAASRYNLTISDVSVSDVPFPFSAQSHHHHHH

Legend:
[1] = test system: CHOK1-cyno-MUC1-C cells; assay: FACS-based determination of affinity of chimeric and humanized anti-MUC1-C antibodies; format: binding; parameters: key: “+” means that there was binding; “−” means that there was no binding
Method: HCC827-human-MUC1-C cells (in-house constructed overexpression stably transfected cell strain), CHOK1-cyno-MUC1-C cells (in-house constructed overexpression stably transfected cell strain), and T47D cells (human ductal breast cancer cells) were separately digested and added to a 96-well plate at 1E5 cells/well. After the plate was centrifuged at 300 g for 5 min, the supernatant was discarded, and the cells were washed once with a PBS buffer containing 2% FBS. The antibodies were 5-fold diluted from a starting concentration of 20 μg/mL using a PBS buffer containing 2% FBS to obtain a total of 8 concentration gradients. The antibody samples were added at 100 μL/well, and the cells were resuspended and incubated at 4° C. for 1 h. After the plate was centrifuged at 300 g for 5 min, the supernatant was discarded, and the cells were washed twice with a PBS buffer containing 2% FBS. […] After the plate was centrifuged at 300 g for 5 min, the supernatant was discarded, and the cells were washed twice with a PBS buffer containing 2% FBS. The cells were resuspended in 100 μL of a PBS buffer containing 2% FBS and analyzed using an instrument. […] The experimental process was the same as that in Test Example 1 “FACS-Based Determination of Affinity of Chimeric Antibodies”. In addition, CHOK1-human-MUC1-C cells (in-house constructed overexpression stably transfected cell strain) were used for evaluation.

[2] = biological target: T1, human MUC1-C-L-his antigen (Homo sapiens, UniProt P15941); assay: Determination of affinity of anti-MUC1-C antibodies using Biacore; settings: Biacore 8K, antibody captured on Protein A chip, 1:1 binding model
T1 construct: made in house; host or cells: 293 cells (transient, pTT5 vector)
Method: • 1. Instrument: Biacore 8K, Cytiva • 2. Material: Protein A biosensor chip (Cat. #29127556, Cytiva) • 3.
The affinity of the antibodies of the present disclosure for the human MUC1-C-L-His antigen was determined using a Biacore 8K instrument.
Method: An antibody molecule was affinity-captured by a Protein A biosensor chip, and the antigen molecule, at a certain concentration, was then allowed to flow through the surface of the chip continuously for 180 s, followed by 600 s of natural dissociation. The reaction signals were detected in real time by the Biacore 8K instrument to obtain an association and dissociation curve. After the dissociation in each experimental cycle was complete, the biosensor chip was regenerated with 10 mM glycine-HCl (pH 1.5). Data fitting was performed using the Kinetics 1:1 binding model.

Row | Molecule | Qualitative determination ([1]; Table 19-3) | Qualitative determination ([1]; Table 19-4) | other results
1 | B1 | + |  | 
2 | B2 | + |  | 
3 | B3 | + |  | 
4 | B4 | + |  | 
5 | B5 | + |  | 
6 | B6 | + |  | 
7 | B7 | + |  | 
8 | B8 | + |  | 
9 | B9 | + |  | 
10 | B10 |  | + | 
11 | B11 |  | + | 
12 | B12 |  | + | 
13 | B13 |  | + | 
14 | B14 |  | + | 
15 | B15 |  | + | 
16 | B16 |  | + | 
17 | B17 |  | + | 
18 | B18 |  | + | 
19 | B19 |  | + | 
20 | B20 |  | + | 
21 | B21 |  |  | ka [2]: 131000 M⁻¹ s⁻¹; kd [2]: 0.00343 s⁻¹
22 | B22 |  |  | ka [2]: 170000 M⁻¹ s⁻¹; kd [2]: 0.000835 s⁻¹
23 | B23 |  |  | ka [2]: 200000 M⁻¹ s⁻¹; kd [2]: 0.0015 s⁻¹

Source: patent US20260232830A1, “ANTIGEN BINDING MOLECULE SPECIFICALLY BINDING TO EGFR AND MUC1, DRUG CONJUGATE THEREOF, AND MEDICAL USE THEREOF” (Jiangsu Hengrui Pharmaceuticals Co., Ltd., priority 2023, published 2026)
